The Ki is the equilibrium dissociation constant of an inhibitor or competing ligand from its target. A lower Ki goes with a stronger hold on the target.

Sequences of proteins named here, by UniProt entry; tags and fusion partners are left off.
UniProt P97266, whole entry: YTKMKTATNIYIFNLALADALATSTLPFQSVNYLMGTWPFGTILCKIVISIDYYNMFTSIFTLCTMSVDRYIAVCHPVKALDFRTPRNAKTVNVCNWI
UniProt P33535, whole entry: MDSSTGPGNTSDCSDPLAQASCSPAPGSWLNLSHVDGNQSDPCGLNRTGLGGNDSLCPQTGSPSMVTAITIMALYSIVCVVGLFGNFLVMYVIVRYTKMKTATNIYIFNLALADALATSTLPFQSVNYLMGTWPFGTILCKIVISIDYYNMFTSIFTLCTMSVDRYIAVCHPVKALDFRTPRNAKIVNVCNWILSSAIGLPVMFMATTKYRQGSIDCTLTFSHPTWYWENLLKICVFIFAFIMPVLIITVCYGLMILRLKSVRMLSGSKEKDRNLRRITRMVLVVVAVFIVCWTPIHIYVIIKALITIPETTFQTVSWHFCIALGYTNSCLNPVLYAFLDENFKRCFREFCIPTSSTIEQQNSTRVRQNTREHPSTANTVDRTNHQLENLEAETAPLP

Molecules are shown by their SMILES.

Assay [1] addresses Mu-type opioid receptor (Cavia porcellus) (UniProt P97266). The conditions noted are these: Ileum, filed as agonist.
Assay [2] addresses Mu-type opioid receptor (Rattus norvegicus, UniProt P33535). As to the kind of experiment: Binding affinity at Opioid receptor mu 1 by displacement of [3H]DAMGO in rat brain membrane. Type of assay: cell membranes.

Regarding `Oc1ccc2c3c1O[C@H]1c4ncc(-c5ccc(Cl)cc5)cc4C[C@@]4(O)[C@@H](C2)N(CC2CC2)CC[C@]314`, the Ke entry in assay [1] was “Agonist”.

In assay [2], `C[C@@H](NC(=O)[C@@H](N)Cc1ccc(O)cc1)C(=O)NCC(=O)N(C)[C@@H](Cc1ccccc1)C(=O)NCCO` [DAMGO] displayed a Ki of 6.1 nM.

For the origin of these results see ChEMBL document CHEMBL1149096 (J Med Chem, 2004).
